# Earlier results, collected in patent US5972963A, “3-aryl-2-(1-substituted 4-piperidinyl)-1,1-dioxo-3H-benzo[D]isothiazoles and related compounds” (Hoechst Marion Roussel, Inc., priority 1997, dated 1999).
# Tested on: serotonin (5 HT) uptake
# Conditions: literature; cited from earlier work
row,SMILES,5 HT uptake inhibition
1,O=c1n(CCCN2CCN(c3cccc(Cl)c3)CC2)nc2ccccn12 [Trazodone],fairly selective effects on 5 HT uptakes
2,C[C@@H]1O[C@@H](O[C@H]2C[C@@H](O)[C@]3(CO)[C@H]4[C@H](O)C[C@]5(C)[C@@H](C6=CC(=O)OC6)CC[C@]5(O)[C@@H]4CC[C@]3(O)C2)[C@H](O)[C@H](O)[C@H]1O [ouabain],inhibited
3,CNCCC(Oc1ccc(C(F)(F)F)cc1)c1ccccc1 (stereo not drawn) [fluoxetine],both a selective and potent 5 HT uptake inhibitor
